One test addresses Maltase-glucoamylase (Homo sapiens, UniProt O43451). Description: Inhibition of intestinal maltase (unknown origin).
The target in test [1] is Sucrase-isomaltase, intestinal (Homo sapiens, UniProt P14410). Description: Inhibition of intestinal sucrase (unknown origin).
Test [2] addresses T1, Ceramide glucosyltransferase (Homo sapiens, UniProt Q16739).
T1 sequence (Q16739 whole entry): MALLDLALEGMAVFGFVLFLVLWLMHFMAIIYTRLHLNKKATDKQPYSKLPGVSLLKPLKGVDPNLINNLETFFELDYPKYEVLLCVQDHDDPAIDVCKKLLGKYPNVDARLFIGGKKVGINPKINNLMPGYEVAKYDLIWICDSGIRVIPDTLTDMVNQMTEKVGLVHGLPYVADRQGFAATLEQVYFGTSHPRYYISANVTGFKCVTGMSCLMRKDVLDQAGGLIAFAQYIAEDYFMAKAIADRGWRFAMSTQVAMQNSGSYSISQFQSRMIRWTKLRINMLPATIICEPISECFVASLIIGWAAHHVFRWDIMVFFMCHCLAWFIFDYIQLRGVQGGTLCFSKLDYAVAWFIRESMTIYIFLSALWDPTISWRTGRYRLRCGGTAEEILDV

The chains behind the UniProt entries cited, without tags or fusion partners. Where a name states a change or a piece, a line headed by the entry shows the natural chain unless it says otherwise. Residues count along the entry.
UniProt O43451: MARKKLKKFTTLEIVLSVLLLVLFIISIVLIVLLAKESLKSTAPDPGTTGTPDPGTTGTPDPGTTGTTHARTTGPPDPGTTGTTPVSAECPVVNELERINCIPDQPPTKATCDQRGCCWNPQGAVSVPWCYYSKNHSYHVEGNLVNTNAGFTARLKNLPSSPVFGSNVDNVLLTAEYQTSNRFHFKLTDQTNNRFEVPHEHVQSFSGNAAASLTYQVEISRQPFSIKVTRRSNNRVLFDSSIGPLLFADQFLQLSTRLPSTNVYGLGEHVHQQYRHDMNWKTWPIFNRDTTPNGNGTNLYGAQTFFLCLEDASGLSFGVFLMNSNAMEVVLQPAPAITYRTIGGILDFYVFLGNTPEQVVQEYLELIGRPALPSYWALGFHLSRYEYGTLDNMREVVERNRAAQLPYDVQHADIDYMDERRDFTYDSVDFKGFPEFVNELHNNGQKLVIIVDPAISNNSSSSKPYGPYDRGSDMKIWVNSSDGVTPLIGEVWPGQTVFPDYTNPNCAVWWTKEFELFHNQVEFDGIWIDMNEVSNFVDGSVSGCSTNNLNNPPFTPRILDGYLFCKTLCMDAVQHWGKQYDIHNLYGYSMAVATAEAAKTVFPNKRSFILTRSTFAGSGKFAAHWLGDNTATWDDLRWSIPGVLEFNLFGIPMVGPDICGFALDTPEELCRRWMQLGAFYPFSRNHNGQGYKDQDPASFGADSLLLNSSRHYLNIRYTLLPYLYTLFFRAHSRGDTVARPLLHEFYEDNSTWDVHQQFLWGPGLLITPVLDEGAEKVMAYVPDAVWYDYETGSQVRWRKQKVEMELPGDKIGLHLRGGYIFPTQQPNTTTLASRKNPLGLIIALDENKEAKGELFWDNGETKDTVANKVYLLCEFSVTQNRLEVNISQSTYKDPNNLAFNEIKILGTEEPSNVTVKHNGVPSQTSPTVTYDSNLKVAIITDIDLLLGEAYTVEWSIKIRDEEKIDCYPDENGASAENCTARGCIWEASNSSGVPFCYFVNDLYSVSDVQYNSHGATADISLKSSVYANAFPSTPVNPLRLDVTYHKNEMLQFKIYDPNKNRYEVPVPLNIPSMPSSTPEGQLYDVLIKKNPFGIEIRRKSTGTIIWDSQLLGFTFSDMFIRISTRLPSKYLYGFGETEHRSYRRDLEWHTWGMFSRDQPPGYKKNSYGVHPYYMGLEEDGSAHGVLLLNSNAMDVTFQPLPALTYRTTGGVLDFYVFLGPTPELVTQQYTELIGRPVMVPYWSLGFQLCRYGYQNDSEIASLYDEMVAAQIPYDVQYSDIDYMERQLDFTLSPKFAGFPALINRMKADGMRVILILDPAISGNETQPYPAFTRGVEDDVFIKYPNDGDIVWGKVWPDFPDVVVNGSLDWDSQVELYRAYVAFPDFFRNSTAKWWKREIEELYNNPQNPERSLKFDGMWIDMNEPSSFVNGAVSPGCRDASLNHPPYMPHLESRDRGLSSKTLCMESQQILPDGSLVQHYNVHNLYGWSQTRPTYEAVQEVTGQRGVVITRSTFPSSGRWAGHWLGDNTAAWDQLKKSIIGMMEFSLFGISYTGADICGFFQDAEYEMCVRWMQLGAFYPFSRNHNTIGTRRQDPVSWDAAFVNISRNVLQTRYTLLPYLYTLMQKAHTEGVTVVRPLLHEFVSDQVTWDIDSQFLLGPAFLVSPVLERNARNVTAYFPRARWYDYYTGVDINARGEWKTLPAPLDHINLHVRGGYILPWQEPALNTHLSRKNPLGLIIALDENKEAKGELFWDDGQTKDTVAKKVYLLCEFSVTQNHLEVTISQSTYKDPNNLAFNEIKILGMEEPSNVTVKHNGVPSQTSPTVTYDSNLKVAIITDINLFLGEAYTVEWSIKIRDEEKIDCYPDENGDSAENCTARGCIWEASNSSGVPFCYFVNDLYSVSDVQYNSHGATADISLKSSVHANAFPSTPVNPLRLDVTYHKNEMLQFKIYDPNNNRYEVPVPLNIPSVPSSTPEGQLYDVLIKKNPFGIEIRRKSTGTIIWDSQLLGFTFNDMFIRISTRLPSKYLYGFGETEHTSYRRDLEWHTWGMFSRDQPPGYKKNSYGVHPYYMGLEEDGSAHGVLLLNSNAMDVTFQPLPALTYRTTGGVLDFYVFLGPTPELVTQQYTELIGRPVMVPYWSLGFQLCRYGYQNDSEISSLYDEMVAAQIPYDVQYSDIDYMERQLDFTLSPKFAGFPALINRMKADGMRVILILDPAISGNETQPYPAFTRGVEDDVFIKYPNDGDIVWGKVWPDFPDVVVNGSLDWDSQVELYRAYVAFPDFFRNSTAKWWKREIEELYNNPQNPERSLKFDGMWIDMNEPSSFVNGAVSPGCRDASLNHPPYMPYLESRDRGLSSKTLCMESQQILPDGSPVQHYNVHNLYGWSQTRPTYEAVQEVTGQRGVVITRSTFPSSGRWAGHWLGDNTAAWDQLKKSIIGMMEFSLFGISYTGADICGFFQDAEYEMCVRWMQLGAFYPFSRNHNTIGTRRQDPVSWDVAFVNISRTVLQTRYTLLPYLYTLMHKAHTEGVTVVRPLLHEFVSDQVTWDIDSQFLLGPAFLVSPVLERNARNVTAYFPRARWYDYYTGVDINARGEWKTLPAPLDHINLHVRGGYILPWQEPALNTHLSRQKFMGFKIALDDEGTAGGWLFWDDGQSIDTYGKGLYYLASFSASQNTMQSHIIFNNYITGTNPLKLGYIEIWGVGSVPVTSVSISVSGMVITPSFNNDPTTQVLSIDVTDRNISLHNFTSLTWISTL
UniProt P14410, 2-1007 limits assumed: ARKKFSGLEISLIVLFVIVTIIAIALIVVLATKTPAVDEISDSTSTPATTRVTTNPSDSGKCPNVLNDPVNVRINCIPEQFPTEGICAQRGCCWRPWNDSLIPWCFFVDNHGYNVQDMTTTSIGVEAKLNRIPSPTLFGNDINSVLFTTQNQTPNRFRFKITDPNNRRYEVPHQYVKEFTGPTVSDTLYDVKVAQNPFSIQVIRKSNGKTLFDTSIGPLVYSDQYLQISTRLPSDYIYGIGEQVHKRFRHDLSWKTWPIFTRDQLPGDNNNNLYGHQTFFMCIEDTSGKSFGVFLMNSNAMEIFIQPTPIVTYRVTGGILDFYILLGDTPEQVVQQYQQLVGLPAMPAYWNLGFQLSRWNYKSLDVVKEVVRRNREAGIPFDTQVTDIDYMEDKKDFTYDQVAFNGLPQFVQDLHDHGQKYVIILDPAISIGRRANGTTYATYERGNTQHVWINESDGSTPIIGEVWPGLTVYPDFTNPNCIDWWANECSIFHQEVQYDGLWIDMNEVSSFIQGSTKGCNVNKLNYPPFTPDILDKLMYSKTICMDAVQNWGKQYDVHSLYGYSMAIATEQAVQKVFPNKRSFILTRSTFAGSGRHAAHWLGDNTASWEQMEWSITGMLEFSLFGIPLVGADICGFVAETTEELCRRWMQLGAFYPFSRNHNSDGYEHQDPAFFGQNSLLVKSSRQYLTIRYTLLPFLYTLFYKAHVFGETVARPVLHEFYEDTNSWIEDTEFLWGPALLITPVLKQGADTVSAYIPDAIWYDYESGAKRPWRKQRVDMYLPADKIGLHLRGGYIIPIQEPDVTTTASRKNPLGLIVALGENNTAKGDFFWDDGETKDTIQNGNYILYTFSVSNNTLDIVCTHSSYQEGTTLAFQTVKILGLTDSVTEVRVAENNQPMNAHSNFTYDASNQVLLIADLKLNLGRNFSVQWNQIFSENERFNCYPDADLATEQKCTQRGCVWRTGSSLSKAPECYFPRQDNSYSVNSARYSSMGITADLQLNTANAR
UniProt P14410, 1008-1827 limits assumed: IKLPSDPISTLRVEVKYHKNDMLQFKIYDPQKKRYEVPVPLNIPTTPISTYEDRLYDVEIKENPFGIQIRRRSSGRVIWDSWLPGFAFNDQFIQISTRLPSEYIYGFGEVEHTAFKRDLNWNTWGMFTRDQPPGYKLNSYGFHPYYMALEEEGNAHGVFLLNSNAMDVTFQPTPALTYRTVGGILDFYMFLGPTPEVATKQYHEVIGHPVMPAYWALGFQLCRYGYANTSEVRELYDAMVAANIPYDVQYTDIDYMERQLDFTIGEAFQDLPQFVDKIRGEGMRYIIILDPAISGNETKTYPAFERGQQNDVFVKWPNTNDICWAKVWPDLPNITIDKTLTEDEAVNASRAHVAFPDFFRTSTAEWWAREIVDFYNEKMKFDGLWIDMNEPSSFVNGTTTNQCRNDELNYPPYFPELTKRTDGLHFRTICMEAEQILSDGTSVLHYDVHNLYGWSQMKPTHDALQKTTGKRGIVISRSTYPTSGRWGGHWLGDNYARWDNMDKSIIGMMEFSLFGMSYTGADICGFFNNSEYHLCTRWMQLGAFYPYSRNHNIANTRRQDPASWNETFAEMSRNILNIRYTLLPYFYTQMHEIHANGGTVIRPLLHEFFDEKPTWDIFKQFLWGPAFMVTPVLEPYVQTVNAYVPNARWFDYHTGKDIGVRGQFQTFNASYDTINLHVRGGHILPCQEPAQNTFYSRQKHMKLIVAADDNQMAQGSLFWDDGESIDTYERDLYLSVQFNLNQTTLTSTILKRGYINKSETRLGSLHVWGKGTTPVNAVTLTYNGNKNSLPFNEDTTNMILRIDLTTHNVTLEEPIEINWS

pIC50: −log10 of the molar value.

For orientation: pIC50 means the IC50 on a negative log10 scale, so that one unit is a factor of ten. `OC[C@@H]1[C@@H](O)[C@H](O)[C@@H](O)CN1CCCCCOCC12CC3CC(CC(C3)C1)C2`: the pIC50 at Maltase-glucoamylase was 5.52; in test [1], 6.22.

Turning to `C[C@H](OCCCCCN1C[C@H](O)[C@@H](O)[C@H](O)[C@H]1CO)c1ccc(-c2ccccc2)cc1`, the pIC50 in test [2] is 7.15.

`C[C@@H](OCCCCCN1C[C@H](O)[C@@H](O)[C@H](O)[C@H]1CO)c1ccc(-c2ccccc2)cc1` gave a pIC50 in test [2] of 7.22.

Turning to `OC[C@H]1[C@@H](O)[C@H](O)[C@@H](O)CN1CCCCCOCC12CC3CC(CC(C3)C1)C2`, the negative logarithm of the IC50 (pIC50) is below 3.30 against Maltase-glucoamylase and below 4.00 in test [1].

These data come from ChEMBL document CHEMBL3352260, “Identification and development of biphenyl substituted iminosugars as improved dual glucosylceramide synthase/neutral glucosylceramidase inhibitors” (J Med Chem, 2014).
